For part of these data: What follows is the remainder of the data, with few or none of the strong results. The entries are a selection whose mix differs from that of the whole data set.
Key:
[1] = molecular target: MAP kinase-interacting serine/threonine-protein kinase 2 (Homo sapiens) (UniProt Q9HBH9); conditions: at 10 µM
[2] = molecular target: Serine/threonine-protein kinase Nek2 (Homo sapiens) (UniProt P51955); conditions: at 10 µM
[3] = molecular target: Testis-specific serine/threonine-protein kinase 1 (Homo sapiens) (UniProt Q9BXA7); conditions: at 1 µM
[4] = molecular target: T1, Testis-specific serine/threonine-protein kinase 2 (Homo sapiens) (UniProt Q96PF2); conditions: at 1 µM
T1 sequence (whole entry): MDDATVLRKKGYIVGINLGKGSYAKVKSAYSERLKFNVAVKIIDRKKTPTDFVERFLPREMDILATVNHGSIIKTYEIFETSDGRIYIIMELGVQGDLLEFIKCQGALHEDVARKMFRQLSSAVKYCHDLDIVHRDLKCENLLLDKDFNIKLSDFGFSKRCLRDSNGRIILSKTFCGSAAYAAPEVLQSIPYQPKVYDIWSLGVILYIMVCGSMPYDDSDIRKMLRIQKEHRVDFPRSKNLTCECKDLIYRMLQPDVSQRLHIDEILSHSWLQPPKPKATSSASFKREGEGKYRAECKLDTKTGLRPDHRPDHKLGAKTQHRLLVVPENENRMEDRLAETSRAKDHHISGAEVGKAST

Protein sequences, listed by entry. Tags and fused reporters are not part of them. Lines headed by an entry give the natural chain unless they say otherwise; changes in a name come on top.
UniProt P42681: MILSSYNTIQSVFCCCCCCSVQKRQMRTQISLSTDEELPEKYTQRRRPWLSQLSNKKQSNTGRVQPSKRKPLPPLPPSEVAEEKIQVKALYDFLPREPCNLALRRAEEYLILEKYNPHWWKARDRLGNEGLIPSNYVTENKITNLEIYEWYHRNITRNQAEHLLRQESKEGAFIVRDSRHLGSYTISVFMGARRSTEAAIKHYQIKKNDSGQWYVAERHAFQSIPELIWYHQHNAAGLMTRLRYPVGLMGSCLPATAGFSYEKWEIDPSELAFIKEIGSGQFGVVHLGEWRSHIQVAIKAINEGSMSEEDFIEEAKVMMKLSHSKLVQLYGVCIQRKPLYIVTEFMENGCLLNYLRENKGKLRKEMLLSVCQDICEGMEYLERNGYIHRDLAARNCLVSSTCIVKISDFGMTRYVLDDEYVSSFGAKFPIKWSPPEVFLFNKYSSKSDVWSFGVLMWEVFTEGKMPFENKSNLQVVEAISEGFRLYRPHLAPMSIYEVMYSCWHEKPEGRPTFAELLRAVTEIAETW
UniProt Q9BYP7: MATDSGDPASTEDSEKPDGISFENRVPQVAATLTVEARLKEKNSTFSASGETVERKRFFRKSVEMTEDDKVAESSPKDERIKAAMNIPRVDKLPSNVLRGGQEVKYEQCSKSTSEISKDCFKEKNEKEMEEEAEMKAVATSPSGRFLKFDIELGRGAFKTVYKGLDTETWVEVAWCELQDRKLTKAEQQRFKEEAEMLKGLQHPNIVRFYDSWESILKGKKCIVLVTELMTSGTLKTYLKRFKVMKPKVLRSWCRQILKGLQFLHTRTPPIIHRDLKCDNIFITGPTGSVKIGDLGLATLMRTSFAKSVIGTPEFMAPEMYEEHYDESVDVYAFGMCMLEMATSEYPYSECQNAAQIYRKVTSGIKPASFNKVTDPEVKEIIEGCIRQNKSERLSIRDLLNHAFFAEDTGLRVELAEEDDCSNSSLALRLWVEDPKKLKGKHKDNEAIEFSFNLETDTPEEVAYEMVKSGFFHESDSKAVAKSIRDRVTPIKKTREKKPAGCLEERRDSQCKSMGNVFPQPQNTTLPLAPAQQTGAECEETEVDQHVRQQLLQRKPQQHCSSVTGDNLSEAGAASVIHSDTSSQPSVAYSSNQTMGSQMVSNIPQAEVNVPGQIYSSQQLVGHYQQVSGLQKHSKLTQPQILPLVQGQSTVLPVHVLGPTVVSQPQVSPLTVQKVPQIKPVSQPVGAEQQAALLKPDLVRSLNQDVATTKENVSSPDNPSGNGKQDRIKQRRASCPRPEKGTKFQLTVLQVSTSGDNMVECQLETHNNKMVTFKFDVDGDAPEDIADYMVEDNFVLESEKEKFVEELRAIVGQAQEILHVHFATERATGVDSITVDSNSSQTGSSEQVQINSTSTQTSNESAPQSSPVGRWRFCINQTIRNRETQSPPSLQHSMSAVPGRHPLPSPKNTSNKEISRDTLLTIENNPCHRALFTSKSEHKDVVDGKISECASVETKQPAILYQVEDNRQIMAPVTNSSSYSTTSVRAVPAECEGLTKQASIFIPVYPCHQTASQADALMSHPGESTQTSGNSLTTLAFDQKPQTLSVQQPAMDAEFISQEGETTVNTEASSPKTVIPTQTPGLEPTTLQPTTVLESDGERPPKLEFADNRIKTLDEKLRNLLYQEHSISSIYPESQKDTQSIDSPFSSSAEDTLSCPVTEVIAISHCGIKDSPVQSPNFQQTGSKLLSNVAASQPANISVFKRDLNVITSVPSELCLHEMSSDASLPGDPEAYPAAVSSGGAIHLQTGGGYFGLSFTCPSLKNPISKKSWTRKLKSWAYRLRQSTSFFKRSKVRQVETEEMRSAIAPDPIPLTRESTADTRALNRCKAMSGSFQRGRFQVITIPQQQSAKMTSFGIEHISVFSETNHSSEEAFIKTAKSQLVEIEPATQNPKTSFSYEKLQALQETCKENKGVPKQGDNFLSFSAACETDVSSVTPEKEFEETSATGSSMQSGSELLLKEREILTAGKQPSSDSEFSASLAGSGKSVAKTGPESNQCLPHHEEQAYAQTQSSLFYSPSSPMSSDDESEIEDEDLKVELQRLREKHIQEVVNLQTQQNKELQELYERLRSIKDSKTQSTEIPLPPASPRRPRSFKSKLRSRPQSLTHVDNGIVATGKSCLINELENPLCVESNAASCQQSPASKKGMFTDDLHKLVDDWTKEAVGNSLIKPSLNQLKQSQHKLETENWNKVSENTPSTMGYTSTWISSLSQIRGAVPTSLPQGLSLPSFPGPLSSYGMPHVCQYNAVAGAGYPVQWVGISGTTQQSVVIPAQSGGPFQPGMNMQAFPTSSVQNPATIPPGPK
UniProt O43293: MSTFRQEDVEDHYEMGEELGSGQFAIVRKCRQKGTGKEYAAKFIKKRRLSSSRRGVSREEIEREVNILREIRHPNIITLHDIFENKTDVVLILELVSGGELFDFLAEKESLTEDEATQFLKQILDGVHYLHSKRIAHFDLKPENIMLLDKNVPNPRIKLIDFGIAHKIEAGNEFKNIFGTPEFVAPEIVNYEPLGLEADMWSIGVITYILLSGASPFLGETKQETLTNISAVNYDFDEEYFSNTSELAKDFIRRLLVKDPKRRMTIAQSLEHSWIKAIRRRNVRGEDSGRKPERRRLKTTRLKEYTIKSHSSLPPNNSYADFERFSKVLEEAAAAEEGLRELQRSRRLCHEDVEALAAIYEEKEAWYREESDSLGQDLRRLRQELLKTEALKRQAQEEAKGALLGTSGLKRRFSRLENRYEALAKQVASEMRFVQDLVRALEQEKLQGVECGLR
UniProt P10721, whole entry: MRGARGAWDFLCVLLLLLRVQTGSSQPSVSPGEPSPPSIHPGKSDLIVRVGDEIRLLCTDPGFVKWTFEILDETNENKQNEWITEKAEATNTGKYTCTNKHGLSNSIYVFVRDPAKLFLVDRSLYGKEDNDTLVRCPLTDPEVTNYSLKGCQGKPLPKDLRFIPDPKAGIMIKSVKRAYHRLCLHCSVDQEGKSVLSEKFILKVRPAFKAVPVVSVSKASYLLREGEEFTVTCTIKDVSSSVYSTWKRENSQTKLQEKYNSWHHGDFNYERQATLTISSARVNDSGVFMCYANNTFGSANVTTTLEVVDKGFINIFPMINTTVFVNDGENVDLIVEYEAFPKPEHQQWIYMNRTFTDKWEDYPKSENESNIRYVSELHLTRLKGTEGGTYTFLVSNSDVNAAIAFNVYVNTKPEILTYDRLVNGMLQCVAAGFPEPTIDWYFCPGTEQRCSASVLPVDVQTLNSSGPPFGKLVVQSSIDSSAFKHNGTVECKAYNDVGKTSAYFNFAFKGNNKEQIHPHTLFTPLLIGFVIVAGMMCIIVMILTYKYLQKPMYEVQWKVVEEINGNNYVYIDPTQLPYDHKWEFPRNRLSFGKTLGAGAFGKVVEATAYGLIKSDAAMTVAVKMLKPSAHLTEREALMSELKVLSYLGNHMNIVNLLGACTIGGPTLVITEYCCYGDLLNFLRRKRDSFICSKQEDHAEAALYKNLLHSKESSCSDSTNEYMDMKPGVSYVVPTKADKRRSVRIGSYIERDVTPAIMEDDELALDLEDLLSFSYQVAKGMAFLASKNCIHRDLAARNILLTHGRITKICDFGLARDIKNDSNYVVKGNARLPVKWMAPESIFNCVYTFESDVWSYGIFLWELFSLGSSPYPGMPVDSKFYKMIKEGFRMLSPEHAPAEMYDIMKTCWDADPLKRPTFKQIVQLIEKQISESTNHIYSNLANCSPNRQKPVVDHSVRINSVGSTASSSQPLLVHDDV
UniProt Q8TDX7: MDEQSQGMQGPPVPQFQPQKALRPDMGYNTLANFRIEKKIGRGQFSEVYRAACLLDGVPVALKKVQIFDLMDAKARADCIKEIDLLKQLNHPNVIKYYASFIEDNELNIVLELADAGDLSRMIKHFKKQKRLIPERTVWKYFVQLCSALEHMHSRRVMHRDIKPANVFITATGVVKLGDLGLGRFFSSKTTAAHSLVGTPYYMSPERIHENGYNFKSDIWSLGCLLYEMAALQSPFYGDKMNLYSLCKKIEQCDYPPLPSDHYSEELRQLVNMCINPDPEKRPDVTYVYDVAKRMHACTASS
UniProt O96013: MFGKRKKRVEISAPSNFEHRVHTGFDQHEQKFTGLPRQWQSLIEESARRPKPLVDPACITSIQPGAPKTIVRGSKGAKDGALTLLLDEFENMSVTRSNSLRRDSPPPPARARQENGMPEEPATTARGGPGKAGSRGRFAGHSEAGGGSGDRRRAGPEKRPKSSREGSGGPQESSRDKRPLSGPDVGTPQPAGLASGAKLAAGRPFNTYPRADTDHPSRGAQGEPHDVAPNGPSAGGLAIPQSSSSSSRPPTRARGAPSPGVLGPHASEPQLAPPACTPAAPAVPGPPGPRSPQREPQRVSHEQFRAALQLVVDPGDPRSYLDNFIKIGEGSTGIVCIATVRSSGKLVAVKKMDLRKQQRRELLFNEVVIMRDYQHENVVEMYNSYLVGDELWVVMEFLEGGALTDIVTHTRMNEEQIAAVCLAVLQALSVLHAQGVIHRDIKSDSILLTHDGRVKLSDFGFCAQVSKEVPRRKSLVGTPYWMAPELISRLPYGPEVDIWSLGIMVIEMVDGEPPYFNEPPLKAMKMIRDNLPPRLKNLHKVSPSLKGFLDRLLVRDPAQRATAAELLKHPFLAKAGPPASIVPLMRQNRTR
UniProt Q9P286: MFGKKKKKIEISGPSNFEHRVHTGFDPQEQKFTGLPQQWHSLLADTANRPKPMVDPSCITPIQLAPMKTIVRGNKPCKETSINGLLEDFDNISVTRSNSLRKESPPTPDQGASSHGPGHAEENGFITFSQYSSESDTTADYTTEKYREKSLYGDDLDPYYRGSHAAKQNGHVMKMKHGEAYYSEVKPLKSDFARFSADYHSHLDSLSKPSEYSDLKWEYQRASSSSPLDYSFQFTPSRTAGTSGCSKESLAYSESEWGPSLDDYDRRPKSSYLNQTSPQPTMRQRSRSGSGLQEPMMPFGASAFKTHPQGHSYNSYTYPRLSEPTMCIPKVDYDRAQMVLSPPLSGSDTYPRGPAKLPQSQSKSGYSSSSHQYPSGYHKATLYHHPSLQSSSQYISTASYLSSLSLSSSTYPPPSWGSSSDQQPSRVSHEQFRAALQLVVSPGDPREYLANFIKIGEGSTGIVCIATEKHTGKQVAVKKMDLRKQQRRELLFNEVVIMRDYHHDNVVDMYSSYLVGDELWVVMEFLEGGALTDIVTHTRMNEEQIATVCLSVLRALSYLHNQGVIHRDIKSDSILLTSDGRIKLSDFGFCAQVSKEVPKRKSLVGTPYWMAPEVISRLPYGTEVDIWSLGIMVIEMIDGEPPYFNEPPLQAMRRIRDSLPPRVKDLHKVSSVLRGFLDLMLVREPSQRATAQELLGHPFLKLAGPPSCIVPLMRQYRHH
UniProt P16234: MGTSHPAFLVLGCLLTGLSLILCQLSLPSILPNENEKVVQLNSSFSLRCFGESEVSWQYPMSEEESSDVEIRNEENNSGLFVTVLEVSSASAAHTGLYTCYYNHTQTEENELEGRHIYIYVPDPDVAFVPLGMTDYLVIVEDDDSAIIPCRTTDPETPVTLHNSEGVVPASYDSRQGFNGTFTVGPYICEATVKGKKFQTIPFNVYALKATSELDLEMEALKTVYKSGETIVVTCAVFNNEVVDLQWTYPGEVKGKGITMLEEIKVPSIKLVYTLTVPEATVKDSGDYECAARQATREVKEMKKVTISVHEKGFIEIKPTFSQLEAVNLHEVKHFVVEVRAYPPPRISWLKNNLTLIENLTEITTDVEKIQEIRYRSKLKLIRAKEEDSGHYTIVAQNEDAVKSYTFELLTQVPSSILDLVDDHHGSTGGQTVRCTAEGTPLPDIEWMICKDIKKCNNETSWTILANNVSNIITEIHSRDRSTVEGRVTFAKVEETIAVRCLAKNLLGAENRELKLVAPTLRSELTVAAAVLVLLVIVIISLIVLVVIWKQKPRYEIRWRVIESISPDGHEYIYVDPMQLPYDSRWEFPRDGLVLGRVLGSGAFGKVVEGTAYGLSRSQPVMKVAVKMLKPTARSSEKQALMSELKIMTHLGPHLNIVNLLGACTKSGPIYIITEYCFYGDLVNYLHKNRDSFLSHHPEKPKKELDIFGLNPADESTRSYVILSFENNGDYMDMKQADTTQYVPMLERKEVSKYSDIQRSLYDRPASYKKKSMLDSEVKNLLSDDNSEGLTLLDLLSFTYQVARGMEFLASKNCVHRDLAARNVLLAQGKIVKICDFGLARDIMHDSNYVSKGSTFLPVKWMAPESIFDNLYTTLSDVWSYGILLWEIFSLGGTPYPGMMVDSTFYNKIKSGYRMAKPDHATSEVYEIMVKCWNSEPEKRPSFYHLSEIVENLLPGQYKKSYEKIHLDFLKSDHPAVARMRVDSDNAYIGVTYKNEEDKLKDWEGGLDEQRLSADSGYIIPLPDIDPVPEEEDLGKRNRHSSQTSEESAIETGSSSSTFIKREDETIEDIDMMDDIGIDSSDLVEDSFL

[5] = molecular target: T1, Testis-specific serine/threonine-protein kinase 2 (Homo sapiens); conditions: at 10 µM
[6] = molecular target: Tyrosine-protein kinase TXK (Homo sapiens) (UniProt P42681); conditions: at 10 µM
[7] = molecular target: T2, Serine/threonine-protein kinase ULK2 (Homo sapiens) (UniProt Q8IYT8); conditions: at 10 µM
T2 sequence (whole entry): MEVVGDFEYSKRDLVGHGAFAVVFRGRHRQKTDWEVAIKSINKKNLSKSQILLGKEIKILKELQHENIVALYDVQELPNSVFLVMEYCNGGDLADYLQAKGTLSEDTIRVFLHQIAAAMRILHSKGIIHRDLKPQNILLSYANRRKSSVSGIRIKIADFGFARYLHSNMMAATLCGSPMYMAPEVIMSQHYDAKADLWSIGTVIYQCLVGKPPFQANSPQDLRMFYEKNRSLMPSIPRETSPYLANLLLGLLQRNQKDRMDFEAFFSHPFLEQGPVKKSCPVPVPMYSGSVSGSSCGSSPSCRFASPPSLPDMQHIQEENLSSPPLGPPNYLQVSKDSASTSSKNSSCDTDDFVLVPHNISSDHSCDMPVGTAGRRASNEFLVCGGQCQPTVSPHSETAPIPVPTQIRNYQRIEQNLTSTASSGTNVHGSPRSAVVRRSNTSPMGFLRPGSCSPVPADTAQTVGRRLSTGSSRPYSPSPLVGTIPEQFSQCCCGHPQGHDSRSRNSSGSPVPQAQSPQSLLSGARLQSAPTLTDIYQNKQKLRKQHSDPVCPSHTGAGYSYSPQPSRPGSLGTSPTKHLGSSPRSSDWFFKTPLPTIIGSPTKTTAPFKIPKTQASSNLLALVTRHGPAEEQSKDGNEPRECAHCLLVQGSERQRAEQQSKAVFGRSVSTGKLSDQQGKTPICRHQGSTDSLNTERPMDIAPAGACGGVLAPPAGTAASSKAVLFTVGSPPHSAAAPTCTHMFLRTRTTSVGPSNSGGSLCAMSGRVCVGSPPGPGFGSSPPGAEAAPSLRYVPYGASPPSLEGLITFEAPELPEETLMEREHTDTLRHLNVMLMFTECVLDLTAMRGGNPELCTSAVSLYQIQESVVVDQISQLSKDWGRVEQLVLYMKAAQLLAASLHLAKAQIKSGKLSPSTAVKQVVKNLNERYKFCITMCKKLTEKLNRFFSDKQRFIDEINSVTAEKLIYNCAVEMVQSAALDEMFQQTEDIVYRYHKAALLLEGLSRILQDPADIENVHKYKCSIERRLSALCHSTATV

[8] = molecular target: Serine/threonine-protein kinase ULK3 (Homo sapiens) (UniProt Q6PHR2); conditions: at 1 µM
[9] = molecular target: Serine/threonine-protein kinase VRK2 (Homo sapiens) (UniProt Q86Y07); conditions: at 10 µM
[10] = molecular target: Serine/threonine-protein kinase WNK2 (Homo sapiens) (UniProt Q9Y3S1); conditions: at 1 µM;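 note: residual WNK2 kinase activity expressed as percent of uninhibited control, assayed in MOPS buffer at pH 7.0 containing EDTA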
[11] = molecular target: Serine/threonine-protein kinase WNK3 (Homo sapiens) (UniProt Q9BYP7); conditions: at 1 µM
[12] = molecular target: Serine/threonine-protein kinase WNK3 (Homo sapiens) (UniProt Q9BYP7); conditions: at 10 µM
[13] = molecular target: Death-associated protein kinase 3 (Homo sapiens) (UniProt O43293); conditions: at 1 µM
[14] = molecular target: Mast/stem cell growth factor receptor Kit (Homo sapiens) (UniProt P10721); conditions: at 10 µM
[15] = molecular target: Proto-oncogene tyrosine-protein kinase Src (Homo sapiens) (UniProt P12931); conditions: at 1 µM
[16] = molecular target: Proto-oncogene tyrosine-protein kinase Src (Homo sapiens) (UniProt P12931); conditions: at 10 µM
[17] = molecular target: Serine/threonine-protein kinase mTOR (Homo sapiens) (UniProt P42345); conditions: at 1 µM
[18] = molecular target: Serine/threonine-protein kinase mTOR (Homo sapiens) (UniProt P42345); conditions: at 10 µM
[19] = molecular target: T3, Serine/threonine-protein kinase Nek6 (Homo sapiens) (UniProt Q9HC98); conditions: at 1 µM
T3 sequence (whole entry): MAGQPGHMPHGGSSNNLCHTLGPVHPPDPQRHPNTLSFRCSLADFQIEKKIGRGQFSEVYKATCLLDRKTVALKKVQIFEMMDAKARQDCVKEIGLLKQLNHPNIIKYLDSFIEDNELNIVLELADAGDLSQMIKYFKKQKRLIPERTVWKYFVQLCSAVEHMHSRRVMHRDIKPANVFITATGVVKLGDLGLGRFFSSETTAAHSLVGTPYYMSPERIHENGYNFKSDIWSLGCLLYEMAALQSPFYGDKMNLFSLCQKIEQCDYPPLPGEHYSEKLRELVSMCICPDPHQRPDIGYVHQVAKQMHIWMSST

[20] = molecular target: Serine/threonine-protein kinase Nek7 (Homo sapiens) (UniProt Q8TDX7); conditions: at 1 µM
[21] = molecular target: Serine/threonine-protein kinase Nek7 (Homo sapiens) (UniProt Q8TDX7); conditions: at 10 µM
[22] = molecular target: Serine/threonine-protein kinase PAK 4 (Homo sapiens) (UniProt O96013); conditions: at 1 µM
[23] = molecular target: Serine/threonine-protein kinase PAK 5 (Homo sapiens) (UniProt Q9P286); conditions: at 1 µM
[24] = molecular target: Serine/threonine-protein kinase PAK 6 (Homo sapiens) (UniProt Q9NQU5); conditions: at 10 µM
[25] = molecular target: NUAK family SNF1-like kinase 1 (Homo sapiens) (UniProt O60285); conditions: at 1 µM
[26] = molecular target: Platelet-derived growth factor receptor alpha (Homo sapiens) (UniProt P16234); conditions: at 10 µM
[27] = molecular target: Platelet-derived growth factor receptor beta (Homo sapiens) (UniProt P09619); conditions: at 1 µM

**Q.** `O=C1NC(=O)C(c2cn(CCCn3ccnc3)c3ccccc23)=C1Nc1ccccc1` was tested. Which residual activity [1] did it give?
**A.** The residual activity was 91%.

**Q.** What about the residual activity [2] of the same compound?
**A.** Its residual activity is 97%.

**Q.** What about the residual activity [3] of the same compound?
**A.** Its residual activity is 91%.

**Q.** What about the residual activity [4] of the same compound?
**A.** Its residual activity is 99%.

**Q.** And the residual activity [5]?
**A.** The residual activity was 91%.

**Q.** And the residual activity [6]?
**A.** The residual activity was 91%.

**Q.** What about the residual activity [7] of the same compound?
**A.** The residual activity was 88%.

**Q.** What about the residual activity [8] of the same compound?
**A.** The residual activity was 92%.

**Q.** What about the residual activity [9] of the same compound?
**A.** Its residual activity is 85%.

**Q.** And the residual activity [10]?
**A.** Its residual activity is inactive: 93%.

**Q.** And the residual activity [11]?
**A.** The residual activity was inactive: 91%.

**Q.** What about the residual activity [12] of the same compound?
**A.** The residual activity was 86%.

**Q.** And the residual activity [13]?
**A.** Its residual activity is 91%.

**Q.** What about the residual activity [14] of the same compound?
**A.** Its residual activity is 96%.

**Q.** And the residual activity [15]?
**A.** Its residual activity is 88%.

**Q.** What about the residual activity [16] of the same compound?
**A.** Its residual activity is 88%.

**Q.** And the residual activity [17]?
**A.** Its residual activity is 97%.

**Q.** And the residual activity [18]?
**A.** Its residual activity is 103%.

**Q.** And the residual activity [19]?
**A.** The residual activity was inactive: 92%.

**Q.** And the residual activity [20]?
**A.** The residual activity was inactive: 117%.

**Q.** And the residual activity [21]?
**A.** Its residual activity is inactive: 92%.

**Q.** What about the residual activity [22] of the same compound?
**A.** The residual activity was 85%.

**Q.** And the residual activity [23]?
**A.** Its residual activity is 90%.

**Q.** And the residual activity [24]?
**A.** Its residual activity is 95%.

**Q.** And the residual activity [25]?
**A.** The residual activity was 91%.

**Q.** And the residual activity [26]?
**A.** Its residual activity is 89%.

**Q.** What about the residual activity [27] of the same compound?
**A.** The residual activity was 96%.
